Test results as given in patent publication US10167259B2, “Allosteric inhibitors of proteasome and methods of use thereof” (THE BOARD OF REGENTS OF THE UNIVERSITY OF TEXAS SYSTEM, priority 2013, dated 2019).

Amino acid sequences for entries named in this document (tags omitted). A change or cut given only in a name is not applied to a line headed by its entry.
UniProt O14818: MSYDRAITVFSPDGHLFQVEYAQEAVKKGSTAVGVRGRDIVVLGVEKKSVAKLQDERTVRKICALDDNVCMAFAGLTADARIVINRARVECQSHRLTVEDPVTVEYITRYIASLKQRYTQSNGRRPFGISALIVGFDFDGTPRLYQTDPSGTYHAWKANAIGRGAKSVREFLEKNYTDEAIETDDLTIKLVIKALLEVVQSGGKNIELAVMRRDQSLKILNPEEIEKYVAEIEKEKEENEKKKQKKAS
UniProt P25786: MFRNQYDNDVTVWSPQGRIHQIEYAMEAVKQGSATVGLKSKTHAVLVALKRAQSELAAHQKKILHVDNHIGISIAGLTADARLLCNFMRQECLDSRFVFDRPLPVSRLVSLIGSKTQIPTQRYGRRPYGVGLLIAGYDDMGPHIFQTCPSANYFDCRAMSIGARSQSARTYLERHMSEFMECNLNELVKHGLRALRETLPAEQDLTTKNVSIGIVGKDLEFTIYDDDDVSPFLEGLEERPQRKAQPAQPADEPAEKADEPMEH
UniProt P25787: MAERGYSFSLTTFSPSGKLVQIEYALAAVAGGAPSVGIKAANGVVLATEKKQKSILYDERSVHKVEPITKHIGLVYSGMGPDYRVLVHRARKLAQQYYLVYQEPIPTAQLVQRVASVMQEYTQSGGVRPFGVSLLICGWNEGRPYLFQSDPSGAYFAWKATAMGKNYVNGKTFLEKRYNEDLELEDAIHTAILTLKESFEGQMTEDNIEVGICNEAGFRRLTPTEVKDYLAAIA
UniProt P25788: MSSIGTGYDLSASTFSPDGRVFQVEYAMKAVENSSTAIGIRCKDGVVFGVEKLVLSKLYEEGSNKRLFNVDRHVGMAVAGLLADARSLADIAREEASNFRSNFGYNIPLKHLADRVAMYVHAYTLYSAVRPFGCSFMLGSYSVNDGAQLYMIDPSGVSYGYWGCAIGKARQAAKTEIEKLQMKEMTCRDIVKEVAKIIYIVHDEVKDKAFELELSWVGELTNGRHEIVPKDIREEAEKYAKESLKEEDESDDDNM
UniProt P25789: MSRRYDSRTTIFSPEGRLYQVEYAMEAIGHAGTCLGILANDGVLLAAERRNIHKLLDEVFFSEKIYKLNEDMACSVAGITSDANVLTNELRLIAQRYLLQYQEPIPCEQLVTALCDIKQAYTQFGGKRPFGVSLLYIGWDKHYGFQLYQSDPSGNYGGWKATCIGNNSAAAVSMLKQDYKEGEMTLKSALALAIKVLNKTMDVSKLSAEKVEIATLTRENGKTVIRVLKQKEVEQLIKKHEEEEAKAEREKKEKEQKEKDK
UniProt P28066: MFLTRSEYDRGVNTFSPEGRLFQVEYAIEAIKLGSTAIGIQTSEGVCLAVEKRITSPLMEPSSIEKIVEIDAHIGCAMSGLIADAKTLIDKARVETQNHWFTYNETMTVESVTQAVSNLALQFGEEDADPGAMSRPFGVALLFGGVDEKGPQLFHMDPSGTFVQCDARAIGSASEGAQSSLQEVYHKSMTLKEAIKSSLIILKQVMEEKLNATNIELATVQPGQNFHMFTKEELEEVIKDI
UniProt P60900: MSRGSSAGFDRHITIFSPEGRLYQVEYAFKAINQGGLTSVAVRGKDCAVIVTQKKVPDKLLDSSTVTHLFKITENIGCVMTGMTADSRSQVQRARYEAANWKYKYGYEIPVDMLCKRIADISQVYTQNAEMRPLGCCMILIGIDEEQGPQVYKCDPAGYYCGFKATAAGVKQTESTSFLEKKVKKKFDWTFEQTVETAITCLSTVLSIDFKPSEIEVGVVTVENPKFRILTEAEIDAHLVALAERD

Experiments:
Solubility in solvents = assay type: physicochemical
[1] = molecular target: chymotrypsin-like activity of the core particle (CP; 20S) (UniProt O14818+P25786+P25787+P25788+P25789+P28066+P60900); experiment: Inhibition of chymotrypsin-like peptidase activity of the proteasome core particle
[2] = molecular target: core particle in cell lysates (UniProt O14818+P25786+P25787+P25788+P25789+P28066+P60900); experiment: Fluorescent labelling of cell lysates, nondenaturing PAGE; details: Mcf7 and Mcf10A lysates; FIG. 3A

1-(2-cyclohexyl-2-oxoacetyl)piperidine-3-carboxylic acid
Soluble in (Solubility in solvents): DMSO, CDCl3

2-(7-nitrobenzo[c][1,2,5]oxadiazol-4-ylamino)ethyl 1-(2-cyclohexyl-2-oxoacetyl)piperidine-2-carboxylate
Inhibitory properties toward the core proteasome after modification of B1 [1]: does not erase the inhibitory properties
Species labelled in cell lysates [2]: decorates only the core particle
